Assay: Inhibition of IL-6-induced STAT3 phosphorylation in human Cal33 cells assessed as nuclear translocation by Western blot analysis

| Compound | IC50 |
| --- | --- |
| CC1=CC(C)(C)N=C(Nc2nc(C)c3cc(C)ccc3n2)N1 | 7.9 µM |
| CCOc1ccc2nc(Nc3nc(=O)cc(-c4ccccc4)[nH]3)nc(C)c2c1 | 3.4 µM |
| Cc1cc(=O)nc(Nc2nc(C)c3cc(C)c(C)cc3n2)[nH]1 | 24.7 µM |
| CCOc1ccc2c(C)nc(NC3=NC(C)=CC(C)(C)N3)nc2c1 [DNDI1417388] | 20.7 µM |
